Results from patent US7241770B2 (priority 2003, dated 2007).

By UniProt entry, the sequences of proteins in these tests, tags left out.
UniProt P35372, whole entry: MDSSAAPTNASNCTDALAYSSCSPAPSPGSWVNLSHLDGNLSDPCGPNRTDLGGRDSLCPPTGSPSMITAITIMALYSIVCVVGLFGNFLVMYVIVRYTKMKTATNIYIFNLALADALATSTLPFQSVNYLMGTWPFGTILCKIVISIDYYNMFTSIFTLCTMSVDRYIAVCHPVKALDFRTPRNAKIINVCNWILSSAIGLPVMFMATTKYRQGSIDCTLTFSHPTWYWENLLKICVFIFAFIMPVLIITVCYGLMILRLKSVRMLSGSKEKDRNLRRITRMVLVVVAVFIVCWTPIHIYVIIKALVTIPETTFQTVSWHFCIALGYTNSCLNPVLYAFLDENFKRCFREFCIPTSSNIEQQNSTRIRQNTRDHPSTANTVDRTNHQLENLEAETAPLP
UniProt P41146, whole entry: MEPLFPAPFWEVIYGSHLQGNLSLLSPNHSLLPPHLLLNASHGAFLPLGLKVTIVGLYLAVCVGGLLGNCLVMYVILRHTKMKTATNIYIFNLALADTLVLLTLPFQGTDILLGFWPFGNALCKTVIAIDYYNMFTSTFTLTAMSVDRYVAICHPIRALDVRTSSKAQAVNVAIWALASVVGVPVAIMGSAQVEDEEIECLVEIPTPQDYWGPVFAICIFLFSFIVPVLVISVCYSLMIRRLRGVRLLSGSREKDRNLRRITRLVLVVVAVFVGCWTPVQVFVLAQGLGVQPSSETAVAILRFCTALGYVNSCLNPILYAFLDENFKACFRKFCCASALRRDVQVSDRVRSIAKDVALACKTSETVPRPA

Assays:
human μ-opiate receptor = human μ-opiate receptor (Homo sapiens, UniProt P35372); assay: Affinity for μ-opiate receptors, [3H]-DAMGO receptor binding assay on CHO cell membranes; settings: human μ-opiate receptor in CHO membranes
human ORL1 receptor = human ORL1 receptor (Homo sapiens, UniProt P41146); assay: Affinity for human ORL1 receptors, [3H]-nociceptin receptor binding assay on CHO cell membranes; settings: human ORL1 receptor in CHO membranes

SMILES: CC1(C)C2CCC(CCN3CCC4(CC3)C(=O)NCN4c3ccccc3)C1C2 (centres unmarked) [Example 1, 8-[2-(6,6-Dimethyl-bicyclo[3.1.1]hept-2-yl)-ethyl]-1-phenyl-1,3,8-triaza-spiro[4.5]decan-4-one]
- affinity μ-opiate pKi (human μ-opiate receptor): 7.7
- affinity ORL1 pKi (human ORL1 receptor): 9.3
